Reference: publication PMC8428256 (Journal of medicinal chemistry, 2021)
Values belong to the compound of their own block, whether it stands above or below them.

Amino acid sequences for entries named in this document (tags omitted). Residues count along the entry.
UniProt P01721, 20-117 T66L/K101C: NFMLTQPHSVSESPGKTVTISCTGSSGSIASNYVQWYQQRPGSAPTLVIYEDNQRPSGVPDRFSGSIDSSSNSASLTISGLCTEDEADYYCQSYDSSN

Columns and labels:
[1] = test system: plasma proteins; type: in vitro ADME, human or mouse; details: 2 μM in plasma, dialysis 4 h, 37 °C
[2] = molecular target: WIL-FL* T46L/F49Y (Homo sapiens, UniProt P01721, form not given/K101C/T66L); details: EC50 ratio WIL-FL vs WIL-FL T46L/F49Y
[3] = test system: WIL-FL F98D; details: Figure S5
[4] = test system: WIL-FL T46L/F49Y/C214S; test: Protease sensitivity assay with destabilized WIL-FL T46L/F49Y/C214S; type: biochemical, human; details: 10 μM stabilizer, 0.5% DMSO, proteinase K, 1 h, 37 °C; mean ± 1 SD

SMILES: CCN(CC)c1ccc2c(C)cc(=O)oc2c1 [Compound 1]
plasma protein binding (in words) [1]: very high plasma protein binding

potency increase with WIL-FL T46L/F49Y consensus sequence in comparison to parent WIL-FL sequence [2]: up to a six-fold potency increase
SMILES: CCN(CC)c1ccc2c(C)c(CCOC(=O)NCc3cccc(-c4ccc[nH]c4=O)c3)c(=O)oc2c1 [Compound 27, 2-(7-(diethylamino)-4-methyl-2-oxo-2H-chromen-3-yl)ethyl (3-(2-oxo-1,2-dihydropyridin-3-yl)benzyl)carbamate]

proteinase K resistance provided to WIL-FL F98D [3]: no appreciable proteinase K resistance
SMILES: CCN(CC)c1ccc2c(C)c(CCN3CC4(CCN(c5nccn6ccnc56)CC4)NC3=O)c(=O)oc2c1 [Compound 53, 3-(2-(7-(diethylamino)-4-methyl-2-oxo-2H-chromen-3-yl)ethyl)-8-(imidazo[1,2-a]pyrazin-8-yl)-1,3,8-triazaspiro[4.5]decan-2-one]

SMILES: CCN(CC)c1ccc2c(C)c(CCN3C(=O)NC4(CCN(c5ncnc6[nH]ncc56)CC4)C3=O)c(=O)oc2c1 [Compound 44, 3-(2-(7-(diethylamino)-4-methyl-2-oxo-2H-chromen-3-yl)ethyl)-8-(1H-pyrazolo[3,4-d]pyrimidin-4-yl)-1,3,8-triazaspiro[4.5]decane-2,4-dione]
WIL-FL T46L/F49Y/C214S fold protection at 10 μM small molecule [4]: < 0.01

SMILES: CCN(CC)c1ccc2c(C)c(CCN3C(=O)NC4(CCN(c5ncccn5)CC4)C3=O)c(=O)oc2c1 [Compound 42, 3-(2-(7-(diethylamino)-4-methyl-2-oxo-2H-chromen-3-yl)ethyl)-8-(pyrimidin-2-yl)-1,3,8-triazaspiro[4.5]decane-2,4-dione]
WIL-FL T46L/F49Y/C214S fold protection at 10 μM small molecule [4]: < 0.01
